AlphaSeq binding of Ab-14 heavy chain variants to a spike HR2 peptide

Data: MIT Lincoln Laboratory AlphaSeq set, Li et al. 2023, doi:10.1038/s41467-023-39022-2, as distributed in FLAb.

Antigen: PDVDLGDISGINAS, a 14-residue peptide of the SARS-CoV-2 spike HR2 region.

Parent: Ab-14, a human scFv built as VH, a 15-residue (Gly4Ser)3 linker, VL. Only the CDRs of the heavy chain vary.
VH: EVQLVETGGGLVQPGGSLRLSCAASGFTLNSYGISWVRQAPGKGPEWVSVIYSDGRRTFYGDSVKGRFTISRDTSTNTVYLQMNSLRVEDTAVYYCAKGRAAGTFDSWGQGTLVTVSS
VL: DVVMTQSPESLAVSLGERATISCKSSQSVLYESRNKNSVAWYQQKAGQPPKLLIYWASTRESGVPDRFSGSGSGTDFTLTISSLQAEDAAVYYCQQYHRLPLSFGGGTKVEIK

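These sequences belong to a second round, designed from the earlier measurements on random variants of the parent. Group labels follow the data file (Ctrl: baseline library sampled from a position-specific scoring matrix, with some repeated check sequences; GPLM: also part of the Gaussian process libraries; HC: hill climbing; a sequence that several methods proposed may carry one label only). The assay is AlphaSeq: two haploid yeast populations carry antibody and antigen on their surface. Pairs that bind mate more often; barcode pairs of the diploids are counted by sequencing. The ratio of observed to expected reads was calibrated, replicate by replicate, on BCL2-family standards whose Kd was known from biolayer interferometry. Each pool was mated in six replicate cultures.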

Changes read parent residue, position, new residue, counted from the first residue of the VH shown.
Scale: log10 of Kd in nM, estimated from mating counts; low values are strong binders.
"ND" marks a missing value. The strain was present, yet no cells mated with the target were sequenced in that replicate, which points to weak or no binding.
The parent sequence was in this pool as ten entries: three were never detected, three once, and four in most replicates, with averages from 0.34 to 2.37.
Some sequences occur more than once in the pool; their replicates are listed entry by entry, parted by semicolons.
Values of this round are not directly comparable with the first-round values of the same sequences.
The authors averaged sequences with at least three values out of six and counted those with two or fewer as poor binders.
Nonspecific signal, from three strains lacking the peptide, appeared in 1% of pairings of all heavy chain designs, centred on 2.08 (5% of these signals below 0.84); values are not corrected for it. Also given: how often the same scFv was detected with the empty control strains, with their mean in brackets.

changes,group,"replicates, log10 nM",signal with controls
T28W+N30D,Ctrl,ND / ND / ND / ND / ND / ND,0/18
S63Q+A102R+D106F,Ctrl,ND / ND / ND / ND / ND / ND,1/18 (0.90)
T28D+F59A+G61E+G99L+R100T+A101L+A102M,Ctrl,ND / ND / ND / ND / ND / ND,0/18
R100P+A101T,Ctrl,ND / ND / ND / ND / ND / ND,0/18
K65E+S107T,Ctrl,0.38 / ND / ND / ND / ND / ND,0/18
G26K+L29R+G103W,Ctrl,ND / ND / 3.47 / ND / ND / ND,0/18
G33S+G61S+R100Y+A101W+A102G+S107T,Ctrl,ND / ND / ND / ND / ND / ND,0/18
T58V+S63N+D106S,Ctrl,0.78 / 0.44 / 0.75 / 0.66 / 0.04 / 0.04,0/18
F59S+A102I,Ctrl,ND / ND / ND / ND / ND / ND,1/18 (1.33)
G61H+R100E+A101S,Ctrl,2.08 / 2.46 / ND / 1.70 / 2.16 / 2.88,0/18
T28E+N30D,Ctrl,1.03 / 1.25 / 1.33 / 0.65 / 1.43 / 1.18,0/18
F59A+G61N+G99S+G103F,Ctrl,ND / ND / ND / ND / ND / ND,0/18
T28P+N30D+G61S+K65E+R100N+A101L,Ctrl,0.83 / 0.60 / 0.32 / 0.13 / 0.37 / 0.30,3/18 (2.17)
F59A+K65D,Ctrl,1.42 / 1.50 / 1.12 / 1.41 / 1.32 / 1.44,0/18
G61E+S63A+R100Q,Ctrl,2.18 / 2.79 / ND / ND / ND / ND,0/18
N30G+T104Q+D106E+S107H,Ctrl,ND / ND / ND / ND / ND / ND,0/18
S63E+R100H,Ctrl,ND / ND / ND / ND / ND / ND,0/18
A101L+S107N,Ctrl,ND / ND / 2.68 / ND / ND / ND,0/18
R56L+F59S+R100S,Ctrl,ND / 0.87 / ND / 1.85 / ND / 2.23,0/18
G61L+G103F,Ctrl,ND / ND / 1.08 / 2.46 / ND / 0.65,0/18
N30E+S53A+T58V+G61S+S107Q,Ctrl,-0.07 / 0.00 / 0.01 / -0.09 / -0.34 / 0.22,0/18
R56E+G99L,Ctrl,ND / ND / ND / ND / ND / ND,0/18
A101E+G103D,Ctrl,ND / 1.35 / 1.16 / 2.59 / ND / 1.92,1/18 (1.66)
L29I+R56E,Ctrl,1.90 / ND / 1.96 / 0.96 / 2.21 / 1.90,0/18
R56M+T104R,Ctrl,ND / ND / ND / ND / ND / ND,0/18
N30S+S31M+R56M+R100Q,Ctrl,ND / ND / ND / 2.14 / 3.28 / ND,0/18
F27Y+Y60F+K65V,Ctrl,ND / ND / ND / 1.54 / ND / ND,0/18
Y52E+G99I+A101Q,Ctrl,ND / ND / ND / ND / ND / ND,0/18
R56L+T58E+F59M+R100S+A102M,Ctrl,ND / ND / ND / ND / ND / ND,0/18
V64F+D106P,Ctrl,1.56 / 1.87 / ND / 1.29 / ND / ND,1/18 (0.84)
A101V+G103K,Ctrl,ND / ND / ND / ND / ND / ND,0/18
T28N+V50R+K65A+G99V+D106H,Ctrl,ND / ND / ND / ND / ND / ND,0/18
G61K+S107N,Ctrl,ND / ND / 0.94 / ND / ND / 2.04,0/18
T28N+R56H+S63A+A102S+D106S,Ctrl,ND / -0.32 / -0.22 / -0.11 / ND / 0.13,0/18
R56Y+G61I+V64Y,Ctrl,ND / ND / ND / ND / ND / ND,0/18
F27V+L29I,Ctrl,ND / ND / ND / ND / ND / ND,0/18
G26R+G61N+R100F,Ctrl,ND / ND / ND / ND / ND / ND,0/18
T28D+L29I,Ctrl,0.54 / 0.50 / 0.66 / 0.85 / 0.54 / 0.92,1/18 (2.15)
L29N+A101I+A102I,Ctrl,ND / ND / ND / ND / ND / ND,0/18
T28E+G61H+A102G+F105S,Ctrl,2.93 / ND / ND / ND / ND / ND,1/18 (2.60)
T28N+G61S+A101V,Ctrl,0.13 / 0.11 / -0.14 / -0.01 / -0.30 / -0.04,1/18 (1.49)
S53A+R56Y+R100Q+A102I+G103I+D106S,Ctrl,ND / ND / ND / ND / ND / ND,0/18
N30E+S31D+A102M,Ctrl,ND / ND / ND / ND / 2.32 / ND,1/18 (3.28)
T28D+T104N+D106I+S107Q,Ctrl,ND / ND / ND / ND / ND / ND,0/18
S53A+G61A+D106E,Ctrl,ND / ND / ND / -0.19 / -0.55 / ND,0/18
L29N+S31D+G61S+S63D,Ctrl,ND / ND / 2.22 / ND / 2.73 / ND,0/18
S35H+A102E+T104E,Ctrl,ND / ND / ND / ND / ND / ND,0/18
T28D+S31D+R100Q,Ctrl,0.62 / 1.17 / 0.05 / 0.01 / 0.30 / -0.61,0/18
G61Q+S63D,Ctrl,ND / ND / ND / ND / 1.88 / ND,0/18
G103W,Ctrl,ND / ND / ND / ND / ND / ND,0/18
S31D+D106W,Ctrl+GPLM_HC,ND / ND / ND / ND / ND / ND; ND / ND / ND / ND / ND / ND,1/36 (2.32)